Source: paper PMC8095187
Substitutions are numbered along the chain they refer to. Names and notes keep the numbering of the source.

Molecular target: monomeric G-actin, P60709
Assay: in vitro actin cross-linking assay (EDC/sulfo-NHS), Western blot densitometry
Conditions: chain shown with the change; G-actin at equimolar ratio; cross-linked for 45 minutes at room temperature; parent: est. 1.0; read off a plot

B1: Recombinant Tmod3-WT, Q9JHJ0 S25D (protein)
chain: MALPFRKDLGDYKDLDEDELLGKLDESELKQLETVLDDLDPENALLPAGFRQKNQTSKSATGPFDRERLLSYLEKQALEHKDRDDYVPYTGEKKGKIFIPKQKPAQTLTEETISLDPELEEALTSASDTELCDLAAILGMHNLIADTPFCDVLGSSNGVNQERFPNVVKGEKILPVFDEPPNPTNVEESLKRIRENDARLVEVNLNNIKNIPIPTLKDFAKTLEANTHVKHFSLAATRSNDPVAVAFADMLKVNKTLKSLNMESNFITGAGVLALIDALRDNETLMELKIDNQRQQLGTSVELEMAKMLEENTNILKFGYQFTQQGPRTRAANAITKNNDLVRKRRIEGDHQ
For B1, the response was 1.1 A.U.

B2: Recombinant Tmod3-WT, Q9JHJ0 S25A (protein)
chain: B1 chain with D25A
For B2, the response was 1.7 A.U.

B3: Recombinant Tmod3-WT, Q9JHJ0 S71A (protein)
chain: B1 chain with D25S, S71A
B3 gave a response of 1.6 A.U.
